{
  "source": "paper PMC4370505",
  "about": "(PLoS ONE, 2015)",
  "key": {"[1]": {"assay": "Single dose intravenous pharmacokinetic study in Wistar rats", "type": "in vivo", "conditions": "for Detectability of conjugate in plasma: 2 mg/kg", "protocol": "Pharmacokinetic studies were conducted with male Wistar rats. Rats were acclimatized and housed at 22°C under 12h light/dark cycle with free access to sterilized commercial food pellets and water in the animal research facility (Curtin University) for at least 3 days prior to experiments. All animal experiments were approved by the Animal Ethics Committee of Curtin University (Approval no: R37–10 Amendment Approval No: A47–10 and A56–10) and were performed according to the Australian Code of Practice for the care and use of animals for scientific purposes. In order to minimize pain and suffering, the dosing and bleeding procedures were conducted under anesthesia (isoflurane at 5% for the induction and 2% for the maintenance, in combination with 1.5% oxygen). At the end of the study, rats were scarified by anesthetic euthanasia using 5% isofluorane with 1.5% oxygen. […] Blood (300 μL) was collected from the tail vein at 0.08, 0.5, 1, 2 and 4 hours into EDTA coated tubes. The blood samples were immediately stored in ice and protected from light until centrifuged (12000 × g at 4°C for 10 min). […] Metabolites were identified using LC-MS/MS (Applied Biosystems, 4000 QTRAP, Toronto, Canada).\nData analysis and representation (mean ± SD) were performed with SigmaPlot version 12 (Systat Software, Inc., Chicago, IL). Pharmacokinetic analysis was performed using Kinetica Version 5.0 (Thermo Fisher Scientific, Inc., Waltham, MA). Non compartmental analysis of the plasma concentration-time data was used to estimate the area under the curve (AUC0-∞; log-linear trapezoidal method), elimination half-life (t½), apparent clearance (CL; Dose÷AUC0-∞), mean residence time (MRT) and volume of distribution (Vss; CL×MRT). Statistical analysis of pharmacokinetic parameters was performed using unpaired t-test with Graphpad Prism software (version 6.05). Pharmacokinetic parameters obtained for each group were analyzed against the resveratrol group and p values were reported."}, "[2]": {"assay": "Stability of resveratrol-polymer conjugates in rat plasma", "type": "in vitro ADME", "conditions": "37°C; for Plasma t1/2: rat plasma in vitro; for Intact conjugate detected by HPLC at initial time point: rat plasma, initial time point of 0 h", "protocol": "The MeO-PEGN-Succ-RSV, 2 kDa, 20 kDa and MeO-PEGO-Succ-RSV 2 kDa (MW quoted in the paper is the size of polymer only. Mw for RSV is 228 Da) at the 10 mg/mL were incubated in plasma at 37°C. […] Aliquots of plasma (0.1 mL) were withdrawn at regular intervals and mixed with acetonitrile (0.9 mL). The mixtures were centrifuged at 10,000 rpm for 5 minutes. The supernatant (0.25 mL) was diluted with water (0.25 mL) and analysed by HPLC [28]. All samples were protected against light during the experiments."}, "[3]": {"assay": "In vitro metabolism in rat liver microsomes with UDPA", "type": "in vitro ADME", "conditions": "for Metabolism in microsomal incubations: rat liver microsomes with UGT reaction mixture, over 60 minutes", "protocol": "Incubations of test substances in reaction mixtures without microsomes were used as a control. All samples were protected against light during the experiments."}, "[4]": {"assay": "Stability of resveratrol-polymer conjugates in physiological relevant buffers", "type": "physicochemical", "conditions": "phosphate buffer 0.1M pH 7.4, 37°C", "protocol": "Briefly, reversed phase chromatographic separation was employed for analysis with xxx column. The HPLC gradient system consisted of solvent A, buffer pH 7.0 with triethyl amine-formic acid (0.05 and 0.2% v/v in water) and solvent B, methanol. A 30 min linear gradient was programmed as follows: 0 min 5% B, 4 min 20% B, 7 min 20% B, 16 min 55% B, 18 min 55% B, 18.5 min 95% B, 23 min 95% B, 24 min 5% B. The flow rate was maintained at 1 mL/min and the injection volume was 50 μL. The HPLC analysis was performed at ambient temperature. Altech Apollo C18 150 X 4.6 mm, 5μ column was employed for seperation. This HPLC method was validated to precisely separate and quantify the trans-resveratrol in the analyte mixture. There was at least two min difference in retention times for the trans and cis isomers of resveratrol. The UV spectrum of the trans isomer is very different from the cis isomer, thus any change to the trans isomer could have been detected. Although quantification was performed using the fluorescence detector at an excitation wavelength of 320nm and emission at 400 nm, simultaneous UV chromatograms were also recorded for specificity and peak purity purposes.\nA similar procedure was used to study the stability of MeO-PEG-PLAO-Succ-RSV in buffers; micelles were prepared as per section 2.8 and diluted 1:5 with buffer solutions and incubated at 37°C. […]"}, "[5]": {"assay": "Behaviour of conjugates in aqueous solution (solubility / self-aggregation)", "type": "physicochemical", "conditions": "up to 10 mg/mL", "protocol": "A solution of 40 mg of MeO-PEG-PLAO-Succ-RSV conjugate in acetonitrile (2 mL) was prepared. The stock solution was diluted with water (4 mL). The acetonitrile was removed by bubbling inert nitrogen gas at room temperature in the dark. The final volume of micellar/nanoparticle dispersion was adjusted to the required volume with water. For pharmacokinetic studies, final concentration of conjugate in micelle dispersion was 10 mg/mL and for critical micellear concentration measurement, the dispersion was diluted accordingly to obtain a series concentration of conjugate in solution below and above the CMC. The micelles of MeO-PEGO-Succ-RSV were formed spontaneously after dispersing in water."}, "[6]": {"conditions": "2 mg/kg equivalent vs resveratrol 10 mg/kg, rats IV"}, "[7]": {"conditions": "rats, IV, 2 mg/kg resveratrol equivalent"}, "[8]": {"conditions": "rats, IV, 2 mg/kg resveratrol equivalents, mean ± SD"}},
  "data": [
    {"substance": "α-methoxy poly(ethylene glycol)-co-polylactide succinyl ester resveratrol [MeO-PEG-PLAO-Succ-RSV 2 kDa]", "values": [
      {"measurement": "Fold higher AUC compared to resveratrol", "setting": "[1]; [6]", "result": 9, "unit": "fold"},
      {"measurement": "Fold lower Vss compared to resveratrol", "setting": "[1]; [6]", "result": 24, "unit": "fold"},
      {"measurement": "Fold lower apparent CL compared to resveratrol", "setting": "[1]; [6]", "result": 34, "unit": "fold"},
      {"measurement": "Detectability of conjugate in plasma", "setting": "[1]; [7]", "result": "lack of detectable conjugate after 2 hr"},
      {"measurement": "AUC0-∞", "setting": "[1]; [8]", "result": "21 ± 17", "unit": "µM·h"},
      {"measurement": "CL", "setting": "[1]; [8]", "result": "9.67 ± 4.33", "unit": "mL/min/kg"},
      {"measurement": "MRT", "setting": "[1]; [8]", "result": "114 ± 24", "unit": "min"},
      {"measurement": "Vss", "setting": "[1]; [8]", "result": "1.12 ± 0.60", "unit": "L/kg"},
      {"measurement": "t½", "setting": "[1]; [8]", "result": "102 ± 30", "unit": "min"},
      {"measurement": "Plasma t1/2", "setting": "[2]", "result": 180, "unit": "min"},
      {"measurement": "Metabolism in microsomal incubations", "setting": "[3]", "result": "did not result in any detectable level of metabolites"}
    ]},
    {"substance": "α-methoxy poly(ethylene glycol)-co-polylactide succinyl ester resveratrol [MeO-PEG-PLAO-Succ-RSV 6.6 kDa]", "values": [
      {"measurement": "Level of metabolites in plasma", "setting": "[1]; rats, IV, 2 mg/kg resveratrol equivalent, compared with MeO-PEG-PLAO-Succ-RSV 2 kDa", "result": "higher level of metabolites"},
      {"measurement": "Detectability of conjugate in plasma", "setting": "[1]; [7]", "result": "no quantifiable polymer conjugate detected"},
      {"measurement": "Plasma t1/2", "setting": "[2]", "result": 5, "unit": "min"}
    ]},
    {"substance": "α-methoxy-ω-carboxylic acid poly(ethylene glycol) succinylamide resveratrol [MeO-PEGN-Succ-RSV20 kDa]", "values": [
      {"measurement": "Plasma t1/2", "setting": "[2]", "result": "<5", "unit": "min"},
      {"measurement": "Intact conjugate detected by HPLC at initial time point", "setting": "[2]", "result": "almost no intact polymer conjugate was detected"},
      {"measurement": "% Conjugate Remaining at 24 hr pH 7.4", "setting": "[4]", "result": "about 9%"}
    ]},
    {"substance": "α-methoxy-ω-carboxylic acid poly(ethylene glycol) succinylamide resveratrol [MeO-PEGN-Succ-RSV 2 kDa]", "values": [
      {"measurement": "Behaviour in aqueous solution", "setting": "[5]", "result": "soluble and formed a clear solution"},
      {"measurement": "Plasma t1/2", "setting": "[2]", "result": "<5", "unit": "min"},
      {"measurement": "Intact conjugate detected by HPLC at initial time point", "setting": "[2]", "result": "almost no intact polymer conjugate was detected"},
      {"measurement": "Hydrolysis in control incubations without microsomes", "setting": "[3]; incubation buffer without microsomes, 37°C", "result": "significant degree of conjugate hydrolysis to free resveratrol"},
      {"measurement": "Metabolism in microsomal incubations", "setting": "[3]", "result": "formation of moderate amount of glucuronide metabolites"}
    ]}
  ]
}
